Values quoted from earlier work, collected in patent publication US5424185A, “Human high-affinity neurotransmitter uptake system” (Baylor College of Medicine, priority 1990, dated 1995).

Tested on: Human Platelets
Conditions: literature values; read-out: Representative IC50, Human Platelets; cited from earlier work

CNCCC=C1c2ccccc2CCc2ccccc21 [Nortriptyline, nortriptyline]
IC50: 2 µM
